Experimental data: ChEMBL document CHEMBL4118120, “Identification of a novel selective small-molecule inhibitor of protein arginine methyltransferase 5 (PRMT5) by virtual screening, resynthesis and biological evaluations” (Bioorg Med Chem Lett, 2018)

Tested on: MV4-11
Assay: Antiproliferative activity against human MV411 cells after 4 days by Celltiiter-Glo luminescence cell viability assay
Type: functional, cell-based

With `COc1ccc(-c2csc(Nc3ccc(O)c(C(=O)O)c3)n2)cc1C` the Activity was “Dose-dependent effect”.
